Measured values published in PMC12259427 (Frontiers in Pharmacology, 2025).

How the values were obtained:
[1] = human, in vivo; cited from earlier work
[2] = in vivo; cited from earlier work
plasma albumin = conditions: ref Zhou et al., 2019; Boztug et al., 2017; Yamaguchi et al., 2023; cited from earlier work
[3] = in vivo

Substance: teicoplanin
- overall mean Cmin [1]: 9000 ng/mL
- share of Cmin lower than expected (<10 μg/mL) [1]: 14.1%
- CL, previously reported values [2]: 0.38 to 1.03 L/h
- elimination half-life [2]: 30 to 180 h
- protein binding to plasma albumin (plasma albumin): over 90%
- CL, final model estimate ([3]; human): 0.98 L/h
- V in males ([3]; human): 90.43 L
- V in the absence of CRRT ([3]; human): 76.68 L
- V in the presence of CRRT ([3]; human): 37.87 L
- V, final model estimate ([3]; human): 108.69 L
- CL, bootstrap median [3]: 0.97 L/h
- V in females [3]: 31.85 L
- V lower in the presence of CRRT than in the absence [3]: 102.48%
- V, bootstrap median [3]: 107.89 L
- θCRRT,V, bootstrap median [3]: −0.70
- θCRRT,V, final model estimate [3]: −0.71
- θSex,V, bootstrap median [3]: −1.07
- θSex,V, final model estimate [3]: −1.07
